From patent US10465009B2, “BCMA antigen binding proteins” (Amgen Inc., priority 2012, dated 2019)
Residue numbers refer to the chain shown, from its start.

B1: 2A1: parental fully human anti-huBCMA mAb, Vh SEQ ID NO:214, Vl SEQ ID NO:248; heavy chain SEQ ID NO:287, light chain 288 (antibody)
heavy: EVQLVESGGGLVKPGRSLRLSCTASGFTFGDYALSWFRQAPGKGLEWVGVSRSKAYGGTTDYAASVKGRFTISRDDSKSFAYLQMNSLKTEDTAVYYCCSSGYSSGWTPFDYWGQGTLVTVSSASTKGPSVFPLAPSSKSTSGGTAALGCLVKDYFPEPVTVSWNSGALTSGVHTFPAVLQSSGLYSLSSVVTVPSSSLGTQTYICNVNHKPSNTKVDKKV[omitted - human IgG1 Fc]
light: QSVLTQPPSASGTPGQRVTISCSGSSSNIGSNTVNWYQQLPGTAPKLLIFNYHQRPSGVPDRFSGSKSGSSASLAISGLQSEDEADYYCAAWDDSLNGWVFGGGTELTVLGQPKAAPSVTLFPPSSEELQANKATLVCLISDFYPGAVTVAWKADSSPVKAGVETTTPSKQSNNKYAASSYLSLTPEQWKSHRSYSCQVTHEGSTVEKTVAPTECS
B2: 2A1CV5-MCC-DM1 (conjugate)
heavy: B1 heavy with R16G, T23A, F80T, C99A
light: B1 light with E106K

Key:
[1] = biological target: T1, [6x Histidine-SUMO]-huBCMA (SEQ ID NO:350) and carboxy terminal clipped forms (Homo sapiens, UniProt Q02223); test: Size exclusion chromatography and LC/MS of antibody complexes with Sumo-huBCMA and its clipped forms; assay type: binding; conditions: SEC
T1 construct: GGS-G3 linker + Avi tag (lost in the clipped species) (C); made in house
T1 sequence (Q02223 5-54): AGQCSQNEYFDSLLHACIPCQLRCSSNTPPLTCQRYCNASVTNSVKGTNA
Description: To determine which forms of 6×His-SUMO-huBCMA were bound to the anti-huBCMA antibodies, the SEC fractions were isolated and analyzed. Carboxy-terminus fragments of the extracellular domain of human BCMA were generated as clipped forms from the rhuBCMA fusion protein (6×His::Sumo::huBCMA(aa 5-51)::GGS::G3::Avi) of SEQ ID NO:350, as shown in FIG. 45.
A Superdex 200™ 10/30 cm SEC column (GE Healthcare Life Sciences) was used according to the manufacturer's recommendations and run in phosphate buffered saline (PBS). Incubations of antibody with excess levels of sumoBCMA were performed at room temperature for at least 30 minutes.
A Superdex 200™ 10/30 cm SEC column (GE Healthcare Life Sciences) was used according to the manufacturer's recommended condision and run in phosphate buffered saline (PBS). Incubations of antibody with excess levels of sumoBCMA were performed at room temperature for at least 30 minutes.
5 ug of total proteins were reduced in 50 mM Tris/4 M guanidine/9 mM DTT, pH 8.0 at 55° C. for 15 min, and analyzed in Agilent LCTOF system using a Vydac C8 column, 2.1 mm ID×150 mm, […] particle size. […] TOF MS conditions included capillary voltage of 4000 V, drying gas flow at 10 L/min, dry gas temperature at 300° C., nebulizer gas flow at 40 L/min, and fragmentor voltage of 300 V. MS data was analyzed in Agilent MassHunter™ Qualitative Analysis program.

KMS26 = test: CellTiter-Glo Luminescent Cell Viability Assay, KMS26; assay type: cell-based, human
Method: The ADCs were tested for the ability to target and kill BCMA-expressing myeloma cells. The CellTiter-Glo® Luminescent Cell Viability Assay is a homogeneous method to determine the number of viable cells in culture based on quantitation of the ATP present, which signals the presence of metabolically active cells. The CellTiter-Glo® Assay is applicable to cytotoxicity assays (see http://www.promega.com/products/cell-health-assays/cell-viability-assays/celltiterglo-luminescent-cell-viability-assay/ for more information). The cell viability assay was used to assess the relative killing capacity of various ADCs on various multiple myeloma cell lines and B-cell lines. […] Luminescence was read on an EnVision™ Multilabel reader (PerkinElmer) or Analyst HT plate reader (LJL Biosciences). The data was analyzed and graphed using GraphPad Prism™ to determine the relative efficacy of the ADCs on various cancer cell lines.
The 2A1CV5-MCC-DM1, 32B5-MCC-DM1 and 29C12-MCC-DM1 ADCs were tested for the ability to target and kill BCMA-expressing myeloma cells (H929). The CellTiter-Glo® Luminescent Cell Viability Assay is a homogeneous method to determine the number of viable cells in culture based on quantitation of the ATP present, which signals the presence of metabolically active cells. […] Luminescence was read on an EnVision™ Multilabel reader (PerkinElmer) or Analyst HT plate reader (LJL Biosciences). […]

[2] = system: primary myeloma bone marrow mononuclear tumor cells (BMMC); test: Flow cytometry DM1 delivery assay (anti-DM1 antibody), primary myeloma BMMC; assay type: cell-based, human; conditions: patient BMMC samples
Description: (§1) The human myeloma tumor cell line MM1R, which expresses a relatively low level of BCMA, was used as a relative positive control to assess whether sufficient DM1 was delivered into the cell by 2A1CV5-MCC-DM1 to induce cell death.

MM1R myeloma cell line = test: Flow cytometry DM1 delivery assay (anti-DM1 antibody), MM1R; assay type: cell-based, human
Description: as §1

Row | Molecule | binding to full-length and truncated forms of huBCMA [1] | Cell line killed by BCMA ADC (KMS26) | delivery of DM1 into primary myeloma tumor cells [2] | delivery of DM1 into MM1R cells (MM1R myeloma cell line)
1 | B1 | bound full-length and truncated forms of BCMA |  |  | 
2 | B2 |  | Yes | delivered varying levels of DM1 into all 13 patient samples | delivered DM1
